Data from PMC11510214, “Novel Dual Acetyl- and Butyrylcholinesterase Inhibitors Based on the Pyridyl–Pyridazine Moiety for the Potential Treatment of Alzheimer’s Disease” (Pharmaceuticals, 2024).

Protein sequences, listed by entry. Tags and fused reporters are not part of them. Residues count along the entry.
UniProt P06276, 29-602: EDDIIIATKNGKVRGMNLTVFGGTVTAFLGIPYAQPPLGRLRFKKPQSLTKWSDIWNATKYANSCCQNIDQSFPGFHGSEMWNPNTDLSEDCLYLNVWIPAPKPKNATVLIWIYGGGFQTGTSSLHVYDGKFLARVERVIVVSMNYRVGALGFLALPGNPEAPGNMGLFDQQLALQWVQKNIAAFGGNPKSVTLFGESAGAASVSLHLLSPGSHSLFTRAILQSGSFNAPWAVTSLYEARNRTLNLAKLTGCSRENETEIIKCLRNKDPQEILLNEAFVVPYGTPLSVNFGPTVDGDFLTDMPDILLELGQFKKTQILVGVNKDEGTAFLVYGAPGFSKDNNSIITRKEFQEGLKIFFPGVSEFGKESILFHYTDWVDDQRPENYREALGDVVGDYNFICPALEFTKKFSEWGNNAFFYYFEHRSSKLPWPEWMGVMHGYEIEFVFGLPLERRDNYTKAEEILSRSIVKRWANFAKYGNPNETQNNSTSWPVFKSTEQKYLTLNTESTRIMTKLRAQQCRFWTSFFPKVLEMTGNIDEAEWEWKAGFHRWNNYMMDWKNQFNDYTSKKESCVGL

Biological target: butyrylcholinesterase (BuChE) (Homo sapiens, UniProt P06276)
Test: biochemical
Conditions: IC50 against butyrylcholinesterase (BuChE), human enzyme; dose response 0.01 to 100 µM

`CCN(C)C(=O)Oc1cccc([C@H](C)N(C)C)c1` [Rivastigmine, rivastigmine, reference compound] showed an IC50 of 18.1 ± 0.59 µM.
